Test results taken from patent publication US12606541B2, “PPARg modulators and methods of use” (Eisai R&D Management Co., Ltd., priority 2020, dated 2026).

Protein sequences, listed by entry. Tags and fused reporters are not part of them. Residues count along the entry.
UniProt P37231, 234-505 limits assumed: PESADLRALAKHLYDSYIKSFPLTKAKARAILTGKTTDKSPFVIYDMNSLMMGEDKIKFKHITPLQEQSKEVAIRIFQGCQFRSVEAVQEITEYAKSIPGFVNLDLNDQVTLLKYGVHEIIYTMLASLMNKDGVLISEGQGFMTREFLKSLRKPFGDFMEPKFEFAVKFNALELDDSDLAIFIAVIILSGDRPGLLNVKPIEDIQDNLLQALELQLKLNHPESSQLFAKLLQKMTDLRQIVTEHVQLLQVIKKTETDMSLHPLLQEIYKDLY

What was measured:
UM-UC-9 engineered cells = test: Cell proliferation / short-term viability assay, CellTiter-Glo 144 h; details: read-out: CTGlo 144 h UMUC9.5, G150
His6-TEV-PPARγ-(234-505) = His6-TEV-PPARγ-(234-505) (Homo sapiens, UniProt P37231); test: TR-FRET Assay to Measure Co-R Peptide Recruitment to PPARγ; details: read-out: TR-FRET i-Ag, Co-R peptide (SMRT-ID2) recruitment, top final concentration 20 μM

| SMILES | AC50 (His6-TEV-PPARγ-(234-505)) | IC50 (UM-UC-9 engineered cells) |
| --- | --- | --- |
| COc1cc(-c2cc(C(=O)N3CCC(C(=O)N[C@@H]4CCN(CC(F)(F)F)C4)CC34CC4)n[nH]2)c(F)cn1 (single isomer, unassigned) [Example 331-A] | 5.7 nM | 4.2 nM |
| COc1cc(-c2cc(C(=O)N3CCC(C(=O)NCC45COC(C4)C5)CC34CC4)n[nH]2)c(F)cn1 (single isomer, unassigned) [Example 337-A] | 263 nM | 447 nM |
| COc1cc(-c2cc(C(=O)N3CCC(C(=O)NCC45COC(C4)C5)CC34CC4)n[nH]2)c(F)cn1 (single isomer, unassigned) [Example 337-B] | 2080 nM | 8160 nM |
| COc1cc(-c2cc(C(=O)N3CC[C@H](C(=O)NCC4CCc5nccn5C4)CC34CC4)n[nH]2)c(F)cn1 (single isomer, unassigned) [Example 356-A] | 102 nM | 4640 nM |
| COc1cc(-c2cc(C(=O)N3CC[C@H](C(=O)NCC4CCc5nccn5C4)CC34CC4)n[nH]2)c(F)cn1 (single isomer, unassigned) [Example 356-B] | 152 nM | 9560 nM |
| COc1cc(-c2cc(C(=O)N3CC[C@H](C(=O)NCC4Cn5c(nnc5C(F)(F)F)CO4)CC34CC4)n[nH]2)c(F)cn1 (single isomer, unassigned) [Example 357-A] | 317 nM | > 10000 nM |
| COc1cc(-c2cc(C(=O)N3CC[C@H](C(=O)NCC4Cn5c(nnc5C(F)(F)F)CO4)CC34CC4)n[nH]2)c(F)cn1 (single isomer, unassigned) [Example 357-B] | 62.5 nM | 1480 nM |
| COc1cc(-c2cc(C(=O)N3CC[C@H](C(=O)NC(C)c4ncccc4Cl)CC34CC4)n[nH]2)c(F)cn1 (single isomer, unassigned) [Example 360-A] | 9.2 nM | 22.6 nM |
| COc1cc(-c2cc(C(=O)N3CC[C@H](C(=O)NC(C)c4ncccc4Cl)CC34CC4)n[nH]2)c(F)cn1 (single isomer, unassigned) [Example 360-B] | 20 nM | 24.4 nM |
| COc1cc(-c2cc(C(=O)N3CC[C@H](C(=O)NC4CCOc5cccnc54)CC34CC4)n[nH]2)c(F)cn1 (single isomer, unassigned) [Example 366-A] | 45.3 nM | 62.8 nM |
| COc1cc(-c2cc(C(=O)N3CC[C@H](C(=O)NC4CCOc5cccnc54)CC34CC4)n[nH]2)c(F)cn1 (single isomer, unassigned) [Example 366-B] | 23.3 nM | 32.3 nM |
| COc1cc(-c2cc(C(=O)N3CCC(C(=O)N[C@H]4CC[C@@](O)(C(F)(F)F)CC4)C[C@@H]3C(F)(F)F)n[nH]2)c(F)cn1 (single isomer, unassigned) [Example 368-A] | 1380 nM | 3540 nM |
| COc1cc(-c2cc(C(=O)N3CCC(C(=O)N[C@H]4CC[C@@](O)(C(F)(F)F)CC4)C[C@@H]3C(F)(F)F)n[nH]2)c(F)cn1 (single isomer, unassigned) [Example 368-B] | 298 nM | 705 nM |
| COc1cc(-c2cc(C(=O)N3CC[C@H](C(=O)NCC4CCS(=N)(=O)C4(C)C)CC34CC4)n[nH]2)c(F)cn1 (single isomer, unassigned) [Example 372-B] | 841 nM | > 10000 nM |
| COc1cc(-c2cc(C(=O)N3CC[C@H](C(=O)NCC4CCS(=N)(=O)C4(C)C)CC34CC4)n[nH]2)c(F)cn1 (single isomer, unassigned) [Example 372-C] | 791 nM | > 10000 nM |
| COc1cc(-c2cc(C(=O)N3CC[C@H](C(=O)NCC4CCS(=N)(=O)C4(C)C)CC34CC4)n[nH]2)c(F)cn1 (single isomer, unassigned) [Example 372-D] | 1410 nM | > 10000 nM |
| COc1cc(-c2cc(C(=O)N3CC[C@H](C(=O)NCC4CCS(=N)(=O)C4(C)C)CC34CC4)n[nH]2)c(F)cn1 (single isomer, unassigned) [Example 372-E] | 577 nM | > 10000 nM |
| COc1cc(-c2cc(C(=O)N3CC[C@H](C(=O)NCC4CCS(=N)(=O)C4(C)C)CC34CC4)n[nH]2)c(F)cn1 (single isomer, unassigned) [Example 372-F] | 846 nM | > 10000 nM |
| COc1cc(-c2cc(C(=O)N3CC[C@H](C(=O)NC(C)c4ncc(F)cc4Cl)CC34CC4)n[nH]2)c(F)cn1 (single isomer, unassigned) [Example 377-A] | 6.3 nM | 25.2 nM |
| COc1cc(-c2cc(C(=O)N3CC[C@H](C(=O)NC(C)c4ncc(F)cc4Cl)CC34CC4)n[nH]2)c(F)cn1 (single isomer, unassigned) [Example 377-B] | 41.1 nM | 43.6 nM |
| COc1cc(-c2cc(C(=O)N3CC[C@H](C(=O)NC4CN(CC(C)(C)F)CC4(F)F)CC34CC4)n[nH]2)c(F)cn1 (single isomer, unassigned) [Example 379-A] | 32.1 nM | 57.6 nM |
| COc1cc(-c2cc(C(=O)N3CC[C@H](C(=O)NC4CN(CC(C)(C)F)CC4(F)F)CC34CC4)n[nH]2)c(F)cn1 (single isomer, unassigned) [Example 379-B] | 7.7 nM | 7.2 nM |
| COc1cc(-c2cc(C(=O)N3CC[C@H](C(=O)NC4CCOc5ccc(C)nc54)CC34CC4)n[nH]2)c(F)cn1 (single isomer, unassigned) [Example 380-A] | 19.3 nM | 22.6 nM |
| COc1cc(-c2cc(C(=O)N3CC[C@H](C(=O)NC4CCOc5ccc(C)nc54)CC34CC4)n[nH]2)c(F)cn1 (single isomer, unassigned) [Example 380-B] | 45.4 nM | 139 nM |
| COc1cc(-c2cc(C(=O)N3CC[C@H](C(=O)NCC4CCc5[nH]nc(C)c5C4)CC34CC4)n[nH]2)c(F)cn1 (single isomer, unassigned) [Example 382-A] | 5.2 nM | 18.3 nM |
| COc1cc(-c2cc(C(=O)N3CC[C@H](C(=O)NCC4CCc5[nH]nc(C)c5C4)CC34CC4)n[nH]2)c(F)cn1 (single isomer, unassigned) [Example 382-B] | 5.1 nM | 11.7 nM |
| COc1cc(-c2cc(C(=O)N3CC[C@H](C(=O)NC4CCOc5cc(F)cnc54)CC34CC4)n[nH]2)c(F)cn1 (single isomer, unassigned) [Example 383-A] | 27.4 nM | 70.4 nM |
| COc1cc(-c2cc(C(=O)N3CC[C@H](C(=O)NC4CCOc5cc(F)cnc54)CC34CC4)n[nH]2)c(F)cn1 (single isomer, unassigned) [Example 383-B] | 17.5 nM | 39 nM |
| Cc1cc(-c2cc(C(=O)N3CCC(C(=O)NCc4ncc(F)cc4Cl)CC34CC4)n[nH]2)c(F)cn1 (single isomer, unassigned) [Example 385-A] | 466 nM | 929 nM |

Now from value to compound, other results behind:

| AC50 (His6-TEV-PPARγ-(234-505)) | SMILES | IC50 (UM-UC-9 engineered cells) |
| --- | --- | --- |
| 103 nM | COc1cc(-c2cc(C(=O)N3CCC(C(=O)N[C@H]4CC[C@@](OCCO)(C(F)(F)F)CC4)CC34CC4)n[nH]2)c(F)cn1 (single isomer, unassigned) [Example 330-A] | 71.7 nM |
| 6.4 nM | COc1cc(-c2cc(C(=O)N3CCC(C(=O)N[C@H]4CC[C@@](OCCO)(C(F)(F)F)CC4)CC34CC4)n[nH]2)c(F)cn1 (single isomer, unassigned) [Example 330-B] | 1.1 nM |
| 410 nM | COc1cc(-c2cc(C(=O)N3CCC(C(=O)N[C@@H]4CCN(CC(F)(F)F)C4)CC34CC4)n[nH]2)c(F)cn1 (single isomer, unassigned) [Example 331-B] | 946 nM |
| 15.6 nM | COc1cc(-c2cc(C(=O)N3CCC(C(=O)N[C@H]4CCN(CC(F)(F)F)C4)CC34CC4)n[nH]2)c(F)cn1 (single isomer, unassigned) [Example 332-A] | 13.8 nM |
| 680 nM | COc1cc(-c2cc(C(=O)N3CCC(C(=O)N[C@H]4CCN(CC(F)(F)F)C4)CC34CC4)n[nH]2)c(F)cn1 (single isomer, unassigned) [Example 332-B] | 1820 nM |
| 5.4 nM | COCC(F)(F)C1(O)CCC(NC(=O)[C@@H]2CCN(C(=O)c3cc(-c4cc(OC)ncc4F)[nH]n3)C3(CC3)C2)CC1 (single isomer, unassigned) [Example 369-A] | 5.4 nM |
| 581 nM | COCC(F)(F)C1(O)CCC(NC(=O)[C@@H]2CCN(C(=O)c3cc(-c4cc(OC)ncc4F)[nH]n3)C3(CC3)C2)CC1 (single isomer, unassigned) [Example 369-B] | 1240 nM |
| 5 nM | COc1cc(-c2cc(C(=O)N3CC[C@@H](C(=O)NC4CCC5(CC4)OCCC5(F)F)CC34CC4)n[nH]2)c(F)cn1 (single isomer, unassigned) [Example 370-A] | 0.9 nM |
| 34.7 nM | COc1cc(-c2cc(C(=O)N3CC[C@@H](C(=O)NC4CCC5(CC4)OCCC5(F)F)CC34CC4)n[nH]2)c(F)cn1 (single isomer, unassigned) [Example 370-B] | 49.3 nM |
| 3.2 nM | COc1cc(-c2cc(C(=O)N3CC[C@H](C(=O)NC4CCC(O)(C(F)(F)C(F)(F)F)CC4)CC34CC4)n[nH]2)c(F)cn1 (single isomer, unassigned) [Example 373-A] | 0.9 nM |
| 69.4 nM | COc1cc(-c2cc(C(=O)N3CC[C@H](C(=O)NC4CCC(O)(C(F)(F)C(F)(F)F)CC4)CC34CC4)n[nH]2)c(F)cn1 (single isomer, unassigned) [Example 373-B] | 128 nM |
| 8.1 nM | COc1cc(-c2cc(C(=O)N3CC[C@H](C(=O)NC4CCC5(CC4)OCC5(F)F)CC34CC4)n[nH]2)c(F)cn1 (single isomer, unassigned) [Example 374-A] | 6.6 nM |
| 50 nM | COc1cc(-c2cc(C(=O)N3CC[C@H](C(=O)NC4CCC5(CC4)OCC5(F)F)CC34CC4)n[nH]2)c(F)cn1 (single isomer, unassigned) [Example 374-B] | 61 nM |
| 158 nM | COc1cc(-c2cc(C(=O)N3CC[C@H](C(=O)NC4CCC(O)(C(C)(F)F)CC4)CC34CC4)n[nH]2)c(F)cn1 (single isomer, unassigned) [Example 375-A] | 231 nM |
